Values of other authors in US9952300B2, “Dynamic contrast enhanced MRI method and agents for the assessment of the macromolecular transport within pathologic tissues” (BRACCO IMAGING S.P.A., priority 2012, dated 2018).

Test system: A431 tumor xenograft
Settings: high doses such as 1 mg/mouse, Lee and Tannock 2010; cited from earlier work

In the case of “Cetuximab: monoclonal antibody; target: epidermal growth factor receptor”, the “tumor tissue from the vessels walls saturated by the mAb” value is given as 100 μm.
